# Source: patent publication US20040116293A1, “Enhanced herbicide composition” (priority 2002, published 2004)
# Tested on: Xanthi-nc tobacco
# Assay: Potentiation rating of Aatrex Nine-O (atrazine) herbicidal activity on Xanthi-nc tobacco relative to equimolar salicylic acid
# Assay type: in vivo, Nicotiana tabacum (tobacco)
# Excerpt: In all examples, deionized ultra-pure water was used in preparing solutions. Spray solutions were used as soon as possible after mixing.
# In all herbicide applications, plants were sprayed with a sufficient volume to insure good coverage, to the point of runoff of the spray solution. […] For all treatments containing both an herbicide and a salicylate or SAR inducer, these materials were mixed and applied in a single spray solution (commonly known as a tank mix). After spraying, plants were moved to the greenhouse and arranged in randomized complete blocks. Plants were evaluated for herbicidal effects (phytotoxicity) after spraying by assessing damage according to percent leaf area affected. All the data were subject to an analysis of variance, and the mean separations were determined with Duncan's multiple range test at α=0.05.
structure (smiles),measurement,value
Cc1ccc(O)c(C(=O)O)c1 [5-Methylsalicylic acid],Potentiation of the herbicidal activity of atrazine compared with salicylic acid (in words),no potentiation
